Assay results published in patent US20240156959A1, “COMBINATION THERAPY FOR THE TREATMENT OF CANCER COMPRISING AN ANTl-EGFR ANTIBODY AND AN AXL-INHIBITOR” (Yeda Research and Development Co. Ltd., priority 2021, published 2024).

Tested on: PC9 cells
Assay: PC9 xenograft tumor growth and relapse
Format: in vivo, CD1-nu/nu mice
Conditions: treatments discontinued on day 30; antibodies 0.2 mg/mouse/injection once every three days, osimertinib 5 mg/kg/day
Source text: FIGS. 1A-G: Upregulation of AXL is essential for resistance and tolerance. (A) PC9 cells (2×10^6) were subcutaneously implanted in nude mice. […] Tumor volumes are presented (average ±SEM). (B) 3-4 mice from each group presented in A were euthanized when tumors reached 1,500 mm 3 Tumors were extracted and subjected to immunoblotting. Tubulin (TUB) served as the loading control. (C and D) AXL-overexpressing (C) and AXL-knockout PC9 cells (2×10^6, D), along with naïve cells, were subcutaneously implanted in mice. When tumors became palpable, mice were randomized and treated as in A. (E) Data were re-analyzed for AXL mRNA levels in 23 patients with EGFR+NSCLC. Specimens (total=53) were collected at several time points, prior to and after treatment with osimertinib. (F and G) AXL-overexpressing (OX; F) or AXL-knockout PC9 cells (KO; G), along with naïve cells, were untreated or treated with TKIs (1 or 3 μM). Drugs and media were refreshed on day 3 and 6. On day 9, remaining cells (DTPs) were fixed, stained and quantified. […] Tumor volume was estimated using vernier caliper measurements of the longest axis, a/mm, and the perpendicular axis, b/mm Volumes were calculated in accordance with the equation V=(4 π/3)×(a/2)^2×(b/2). […] Mice were sacrificed four weeks after injection, and the lungs were analyzed. Lung images were acquired, and the numbers of micro-metastases or nodules were quantified.

**Q.** Which “tumor relapses after treatment” value does the source give for cetuximab here?
**A.** Its value is “better delayed relapses”.
